Ab-14 light chain CDR variants: yeast mating affinities

From the AlphaSeq antibody data of Li et al. 2023 (doi:10.1038/s41467-023-39022-2), copy in the FLAb collection.

Target: peptide PDVDLGDISGINAS, taken from heptad repeat 2 (HR2) of SARS-CoV-2 spike.

Parent scFv Ab-14: VH joined to VL by the linker GGGGSGGGGSGGGGS. Changes lie in the light chain CDRs alone.
VH: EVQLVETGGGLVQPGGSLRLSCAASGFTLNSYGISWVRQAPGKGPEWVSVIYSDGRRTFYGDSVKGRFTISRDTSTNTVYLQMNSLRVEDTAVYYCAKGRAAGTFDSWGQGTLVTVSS
VL: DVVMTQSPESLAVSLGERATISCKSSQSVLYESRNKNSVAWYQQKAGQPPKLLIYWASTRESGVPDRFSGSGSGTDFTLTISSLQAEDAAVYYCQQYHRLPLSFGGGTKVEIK

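The variants were designed computationally from a first round of random CDR variants and then made and measured. Several design methods are mixed in this list. In AlphaSeq, yeast of one mating type display the scFv and yeast of the other type display the target. Binding brings cells together so that they mate, and sequencing counts the barcode pairs among the diploids. A regression on co-assayed BCL2-family reference pairs converts the normalised counts of each replicate to an apparent Kd. Mating was done six times.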

The parent's light chain CDRs are KSSQSVLYESRNKNSVA, WASTRES, QQYHRLPLS; each variant's own CDRs replace them letter for letter. This list holds designs with more than six substitutions. Values are apparent Kd, the geometric mean of the replicates that gave a signal; lower means stronger binding. An entry "nd" has no value in the source: the pair was not observed among the diploids in any replicate. This suggests poor binding but is not conclusive.

The variant KSSMSWEYESRNSNSVA | HASTRED | QQYHRLPLA gave 1.3 nM (6 of 6 replicates; controls 0 of 18).
The variant QLQLQPREGAQEQNSIA | DESEADM | QHYARLPLT gave nd (0 of 6 replicates; controls 0 of 18).
The variant KLTMIMGLEKVSKNQVA | EMETREK | QQYNRLPLS gave 9.2 nM (6 of 6 replicates; controls 0 of 18).
The variant NLFGVEFESAQMGNAIA | DMSHVMA | QQYFMLPLH gave 8.8 nM (6 of 6 replicates; controls 0 of 18).
The variant MVNGILDHMSKNTNSVA | ETSTRES | QQYDRLPLF gave 2.2 nM (6 of 6 replicates; controls 0 of 18).
The variant TLSDSVKMESRNTNSVA | DNSTRGS | QQYDRLPLS gave 70 nM (1 of 6 replicates; controls 0 of 18).
The variant TISGVMMQLSHSKNNVA | EVSMRLD | QQYFRLPLE gave 130 nM (6 of 6 replicates; controls 0 of 18).
The variant MVYQAAMMGTSTRNSIA | NAEMRPD | QQYHRLPLE gave 17 nM (6 of 6 replicates; controls 0 of 18).
The variant MISQSFLIGSKAKNSVA | QTSTRES | QQYDRLPLS gave 2.5 nM (6 of 6 replicates; controls 0 of 18).
The variant TLYMGPTEARDSKHAIA | NMNERDY | QQYHRLPLV gave 2.9 nM (6 of 6 replicates; controls 0 of 18).
The variant SIGGVMKSQSAHRNSVA | DMTNREQ | QQYDRLPLS gave 1.5 nM (6 of 6 replicates; controls 0 of 18).
The variant QLDQAYRVGELWKESIA | HGSMRVE | QCYVRLPLS gave 12 nM (6 of 6 replicates; controls 0 of 18).
The variant KLSGSDLYESRNSNSVA | QGSTRES | QDYHRLPLS gave 39 nM (5 of 6 replicates; controls 0 of 18).
The variant KLSMITGHLQQSKNNVA | EMVTREN | QQYERLPLS gave 1.5 nM (6 of 6 replicates; controls 1 of 18).
The variant KVSQLGLYGQRNANSVA | NASTRED | QQYHRLPLS gave 400 pM (6 of 6 replicates; controls 1 of 18).
The variant MISQLHNMGTFAINSVA | QASIRNA | QQYDRLPLV gave 8.1 nM (6 of 6 replicates; controls 0 of 18).
The variant KIGDMVHTESRNKNSIA | DMRTRES | QQYYRLPLS gave 5.7 nM (6 of 6 replicates; controls 2 of 18).
The variant KISQMVRVGSTHSNSIA | EEQTRAK | QQYHRLPLA gave 4.3 nM (6 of 6 replicates; controls 0 of 18).
The variant TISQMTSLFSQTINNVA | EVSTREI | QQYDRLPLT gave 290 nM (6 of 6 replicates; controls 0 of 18).
The variant KLQMSWLMQSRMKNQVA | HASMRES | QQYHRLPLS gave 3.4 nM (6 of 6 replicates; controls 1 of 18).
The variant KLYMSTGYESRNKDSIA | DNSTRGR | QQYHRLPLS gave 440 nM (6 of 6 replicates; controls 2 of 18).
The variant KISQMVKVGATHSNSIA | EEVTRAN | QQYHRLPLS gave 1.5 nM (6 of 6 replicates; controls 1 of 18).
The variant KLYVSTMLESLNKNSIA | DLSTRGN | QQYHRLPLS gave nd (0 of 6 replicates; controls 0 of 18).
The variant TIGGTLMYGMRNRSNVA | EVSERLN | QQYDRLPLM gave 43 nM (6 of 6 replicates; controls 0 of 18).
The variant MFSQSVLYESVMKNNVA | QTSTRES | QQYDHLPLS gave 5.3 nM (6 of 6 replicates; controls 0 of 18).
The variant IISQSFLGEYHNKNSVA | QTSERGS | QQYDHLPLS gave 9.3 nM (6 of 6 replicates; controls 0 of 18).
The variant TLTQVQGMESHNTNSVA | DLSTRGS | QQYHRLPLS gave 1.0 nM (6 of 6 replicates; controls 1 of 18).
The variant QIGMLMNFELQKINNVA | QMETRVN | QQYDRLPLS gave 1.8 nM (6 of 6 replicates; controls 0 of 18).
The variant KLSTSWLYGKRNKNSVA | QASQRES | QQYHRLPLS gave 5.7 nM (6 of 6 replicates; controls 1 of 18).
The variant SLMQVGGYELNEHNSIA | DLRTRES | QQYHRLPLS gave 1.1 nM (6 of 6 replicates; controls 1 of 18).
The variant SLYGEYALVDQHTDSIA | DANLMMH | QQYHRLPLA gave 4.0 nM (6 of 6 replicates; controls 1 of 18).
The variant KLRQSMLYEDRNKNSVA | NASQRCS | QQYHRLPLS gave 380 pM (6 of 6 replicates; controls 1 of 18).
The variant KLSQSVPYEERCFNSVA | HASQRES | QQYHRLPLS gave 1.6 nM (6 of 6 replicates; controls 0 of 18).
The variant MMSQVSGQGTRHRNNVA | QTETREP | QQYDRLPLM gave 4.3 nM (6 of 6 replicates; controls 2 of 18).
The variant KSSQIVLGMDGNKNSVA | QASQRES | QQYHRLPLS gave 3.0 nM (6 of 6 replicates; controls 0 of 18).
The variant NLNDSDMYASQMTDNIA | QDTQRNE | QQYAKLPLS gave 11 nM (6 of 6 replicates; controls 1 of 18).
The variant SMAYQQGGYNQQEKAIA | EAATRTQ | QQYFRLPLT gave 5.8 nM (6 of 6 replicates; controls 1 of 18).
The variant KIQPDLQQSFASKNNVA | DRQLSAE | QQYNRLPLV gave 8.4 nM (5 of 6 replicates; controls 0 of 18).
The variant IISGSYLMESRNKNSVA | NAETREY | QHYDRLPLS gave 260 nM (3 of 6 replicates; controls 0 of 18).
The variant KLRLSKEYESRQKNSVA | NASTREV | QQYHRLPLS gave 500 pM (6 of 6 replicates; controls 0 of 18).
The variant MIKEENIGVGNYQNNIA | DGASTMA | QQYYRLPLA gave 1.9 nM (6 of 6 replicates; controls 0 of 18).
The variant NLQNPGSELSVWKRNIA | DANIRES | QQYFRLPLL gave 2.4 nM (6 of 6 replicates; controls 3 of 18).
The variant AFTESIFYGQRDSNAIA | GADVVEK | QQYFRFPLM gave 41 nM (6 of 6 replicates; controls 0 of 18).
The variant TISQVLNTLAKTGNNVA | DLAERED | QQYFRLPLS gave 48 nM (6 of 6 replicates; controls 0 of 18).
The variant FLGYQQDGNGLQRQAVA | QVNMKEY | QQYGRLPLM gave 120 nM (3 of 6 replicates; controls 0 of 18).
The variant MISQLMNLGQFAINSVA | QASIRNS | QQYDRLPLI gave 17 nM (6 of 6 replicates; controls 0 of 18).
The variant RLLAQNLQNMDKLNSIA | EQSVHYQ | QQYGRLPLT gave 110 nM (6 of 6 replicates; controls 0 of 18).
The variant HMSMLTLGGMRTRNSVA | QMTTREN | QQYDRLPLA gave 7.1 nM (6 of 6 replicates; controls 1 of 18).
The variant KLSQWYWYESRNKNSVA | NASTREV | QQYWRLPLS gave 4.0 nM (6 of 6 replicates; controls 3 of 18).
The variant HMKDELGLGPQTYYSVA | HGSIREP | QDYYRLPLG gave 8.5 nM (6 of 6 replicates; controls 0 of 18).
The variant MISHVMNTLTRNGNNVA | DLAERED | QQYFRLPLS gave 7.9 nM (6 of 6 replicates; controls 0 of 18).
The variant HLGLATMLEEKVRNSVA | NNSTREE | QQYDRLPLS gave 8.1 nM (6 of 6 replicates; controls 2 of 18).

A sequence measured in both rounds can read differently, since the two assays cover different ranges. In the paper, a design with two or fewer of six values counts as a poor binder. The parent sequence was in this pool as ten entries: three were never detected, three once, and four in most replicates, with averages from 2.2 nM to 240 nM. Background: pairings of all light chain designs with three empty control strains gave a value in 4% of cases (median 430 nM, 5th percentile 38 nM). Values in that range, when seen in few replicates, are hard to tell from nonspecific mating. The control count says in how many pairings with the empty strains this scFv gave a signal.